Test [1] has as its target T1, Glycogen phosphorylase, muscle form (Oryctolagus cuniculus, UniProt P00489).
T1 sequence (P00489 whole entry): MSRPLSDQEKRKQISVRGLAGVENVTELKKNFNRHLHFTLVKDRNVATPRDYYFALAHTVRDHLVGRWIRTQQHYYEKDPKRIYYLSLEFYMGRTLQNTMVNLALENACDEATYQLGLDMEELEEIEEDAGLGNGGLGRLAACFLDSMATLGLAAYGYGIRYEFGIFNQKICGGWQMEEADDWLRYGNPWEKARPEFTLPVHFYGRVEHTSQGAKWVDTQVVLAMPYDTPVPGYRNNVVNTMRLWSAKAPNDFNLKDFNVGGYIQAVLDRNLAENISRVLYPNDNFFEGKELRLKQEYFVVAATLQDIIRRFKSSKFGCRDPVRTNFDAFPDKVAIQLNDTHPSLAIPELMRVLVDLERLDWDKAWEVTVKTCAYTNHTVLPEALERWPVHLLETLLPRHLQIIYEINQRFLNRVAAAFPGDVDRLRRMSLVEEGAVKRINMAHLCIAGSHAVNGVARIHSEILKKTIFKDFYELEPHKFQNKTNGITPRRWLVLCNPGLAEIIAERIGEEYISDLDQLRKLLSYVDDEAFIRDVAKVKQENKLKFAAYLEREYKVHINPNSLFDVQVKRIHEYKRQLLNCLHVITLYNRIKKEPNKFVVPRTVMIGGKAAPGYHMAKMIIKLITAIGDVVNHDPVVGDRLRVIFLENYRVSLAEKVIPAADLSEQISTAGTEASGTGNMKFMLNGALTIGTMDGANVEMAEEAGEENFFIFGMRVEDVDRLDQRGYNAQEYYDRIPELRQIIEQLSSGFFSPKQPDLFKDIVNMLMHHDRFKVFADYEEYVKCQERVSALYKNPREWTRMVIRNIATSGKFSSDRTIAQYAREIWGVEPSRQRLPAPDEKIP

Test [2] addresses Glycogen phosphorylase, muscle form (Oryctolagus cuniculus) (UniProt P00489). Nature of the test: Inhibition of glycogen phosphorylase b.

With `CC[C@H]1O[C@@H](NC(=S)N/N=C/c2ccc(F)cc2)[C@H](O)[C@@H](O)[C@@H]1O`, the IC50 – broadly, the concentration that gives 50% inhibition – in test [1] is 5.7 µM. For the same compound, the affinity in test [2], expressed as Ki, was 4.6 µM.

The values are drawn from ChEMBL document CHEMBL1275370, “The binding of β-d-glucopyranosyl-thiosemicarbazone derivatives to glycogen phosphorylase: A new class of inhibitors” (Bioorg Med Chem, 2010).
